Experimental data published in patent US8536171B2, “Method for obtaining 5-amino 2,3-dihydrophthalazine-1,4-dione alkali metal salts and their use in medicine” (Abidopharma PL SP. Z.O.O., priority 2009, dated 2013).

Experiments:
[1] = system: rats with experimental myocardial infarction; conditions: 5 mg per kg per 24 hours intramuscularly
Procedure: The animals of 230 to 258 g were subjected to ether narcosis for 1-3 minutes, Next, by the thoracotomy method there was achieved access to the anterior branch of the coronary artery and its lumen was closed by means of an electrode. The wound was closed by atraumatic sutures. […] The rats were divided in two groups.
The animals were being observed for 24 hours (every one in a separate cage). […] The second group of 10 rats (5 of each group) were killed after 5 days and the third group of 10 animals (5 of each group)—after 7 days. In all the rats there was performed postmortem macroscopic examination of hearts, pleura and abdominal cavity organs. The tissues were taken from the infarct focus for microscopic examination. They were retained in formalin and stained conventionally with H-E. Blood for biochemical tests was taken by heart puncture of 3 ml volume.

[2] = system: people after myocardial infarction; conditions: 15 patients
[3] = system: patients with acute and chronic pancreatitis; conditions: 25 patients

With `Nc1cccc2c(=O)[nH][nH]c(=O)c12.[Na]` [II-Na salt, 5-amino-2,3-dihydrophthalazine-1,4-dione sodium salt] the “reaction in the place of injection” value [1] was “neither pain reaction nor local inflammatory state”, the side effects [2] was “no side effects” and the side effects [3] was “not observed significant side effects”.
